US11365199B2, “Pyrazole compounds as modulators of FSHR and uses thereof” (Merck Patent GmbH, priority 2013, dated 2022)

Chains of the proteins cited; added tags and fusions are not shown. Residues count along the entry.
UniProt P23945, 18-695 limits assumed: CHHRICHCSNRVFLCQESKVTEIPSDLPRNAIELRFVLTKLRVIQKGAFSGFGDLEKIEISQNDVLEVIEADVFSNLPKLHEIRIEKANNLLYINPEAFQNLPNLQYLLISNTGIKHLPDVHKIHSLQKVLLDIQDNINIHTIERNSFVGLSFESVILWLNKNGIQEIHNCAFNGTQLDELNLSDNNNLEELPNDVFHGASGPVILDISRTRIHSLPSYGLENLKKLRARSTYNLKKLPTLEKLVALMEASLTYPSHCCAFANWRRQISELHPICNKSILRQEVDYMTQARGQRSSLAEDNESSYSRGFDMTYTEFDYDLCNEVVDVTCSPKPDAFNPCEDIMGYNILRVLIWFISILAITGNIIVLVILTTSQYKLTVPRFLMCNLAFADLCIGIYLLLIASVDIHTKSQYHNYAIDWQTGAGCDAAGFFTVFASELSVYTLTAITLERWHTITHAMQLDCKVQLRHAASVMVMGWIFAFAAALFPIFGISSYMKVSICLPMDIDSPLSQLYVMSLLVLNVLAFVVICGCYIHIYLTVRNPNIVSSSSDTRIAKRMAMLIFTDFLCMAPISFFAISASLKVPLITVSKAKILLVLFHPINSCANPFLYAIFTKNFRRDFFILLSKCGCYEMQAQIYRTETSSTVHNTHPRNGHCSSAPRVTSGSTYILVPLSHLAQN

Molecular target: FSHR (Homo sapiens, UniProt P23945)
Assay: EC50 of cyclic AMP production in CHO FSHR cells + EC20 FSH (Assay A)
Format: cell-based
Conditions: read-out: Assay A: EC50 of cyclic AMP production, cAMP HTRF
Experimental: EC50 of Cyclic AMP Production in CHO FSHR Cells+EC20 FSH (Assay A)
2500 Cho-FSHR-LUC-1-1-43 cells were plated per well in 5 μl of phenol red free DMEM/F12+1% FBS. Cells were plated in 384 well, solid white low volume plates (Greiner 784075) by Multidrop. Cells were assayed by adding 100 μl of 2×EC20 FSH/IBMX in DMEM/F12+0.1% BSA) by Multidrop to 2 μl of test compound stamped in 384 well plates (compounds are diluted 1:50). The final FSH concentration was […], and the final IBMX concentration was 200 μM. The compound plate map was as follows: Column 1: 2 μl of DMSO; Column 2: 2 μl of DMSO; Columns 3-12 and 13-24: 2 μl of test compound, diluted 1:4 in 100% DMSO, or 2 μl of FSH, diluted 1:4 in DMEM/F12+0.1% BSA. The starting concentration for FSH was 50 nM (final concentration was 0.5 nM). Furthermore, Column 23 contained 2 μl of EC100 FSH reference (100×) (diluted in DMEM/F12+0.1% BSA) at a final concentration of 0.5 nM, and Column 24 contained 2 μl of 1 mM AS707664/2 reference compound 2. 5 μl of compound+EC20 FSH mixture were transferred to cell plates (1:2 dilution into 5 μl of cell media) The plates were incubated at 37° C. for 1 h. […] The plates were read on Envision using the cAMP HTRF—low volume 384 well protocol. The readout was the calculated fluorescence ratio (665 nm/620 nm). […]

SMILES: [2H]C([2H])([2H])N(C(=O)c1nn(-c2ccsc2)c2c1COc1cc(OC)c(-c3ccn(C)n3)cc1-2)C(C)(CO)CO
- EC50: 1 to 5 µM
